{"source": "patent US11572296B1", "about": "“Method for extending time of activity of chlorite-based biocides” (priority 2020, dated 2023)", "format": "physicochemical", "details": "moderately clean produced water, formulation partially reacted with acid", "data": [{"substance": "Chlorite ion [ClO2^−]", "values": [{"measurement": "time for which activity is detected / ion lasts", "value": "4 to 7", "unit": "days"}]}]}
